The list shows a part of the results, in another mix than the full data. The source made the active and inactive calls. Cut-off read from the data, not from the text of the source: active = inhibition above about 19%; inactive = the rest.
system: T-cell receptor (TCR); test: inhibitors of human TCR-CD3 interaction, primary screen, biochemical, fluorescence, TAMRA-labeled TCR probe (AID 651800); conditions: at 9.4 µM, active compounds read high;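 note: recombinant mutant TCR 2C K166C tagged with TAMRA read by polarization; 0% = receptor in buffer alone and 100% = receptor with positive control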

Row | SMILES | inhibition
1 | CC(C)(C)n1nnnc1C(c1ccccc1OC(F)(F)F)N1CCC(n2c(=O)[nH]c3ccccc32)CC1 (stereo not drawn) | inactive: 4.56%
2 | O=C(NCC1(N2CCCCC2)CCCCC1)c1ccc(OC(F)F)cc1 | inactive: -7.26%
3 | O=C(NCC1(N2CCCCC2)CCCCC1)c1cccc([N+](=O)[O-])c1 | inactive: 2.27%
4 | CSc1ccc(C(=O)NCC2(N3CCOCC3)CCCCC2)cc1 | inactive: -12.6%
5 | CCN1CCC(Nc2ccc(Cl)cc2)CC1 | inactive: -1.32%
6 | O=c1[nH]c2ccccc2n1C1CCN(C(c2ccccc2OC(F)(F)F)c2nnnn2C2CCCC2)CC1 (stereo not drawn) | inactive: -0.03%
7 | N#CC1(Nc2ccccc2)CCN(CCc2ccccc2)CC1 | inactive: 4.04%
8 | O=C(NCC1(N2CCCCC2)CCCCC1)c1cccc(C(F)(F)F)c1 | inactive: 3.94%
9 | CC(C)c1ccc(C(=O)NCC2(N3CCOCC3)CCCCC2)cc1 | inactive: -7.28%
10 | COc1ccc(NC2CCN(C(=O)OC(C)(C)C)CC2)cc1 | inactive: -1.98%
11 | CN1CCN(CCOC(=O)C(O)(c2ccccc2)c2ccccc2)CC1 | inactive: 9.04%
12 | CCCCn1nnnc1C(c1cccc2ccccc12)N1CCC(n2c(=O)[nH]c3ccccc32)CC1 (stereo not drawn) | inactive: 6.93%
13 | O=C(NCC1(N2CCOCC2)CCCCC1)c1cc(=O)[nH]c2ccccc12 | inactive: 0.36%
14 | COc1cc(C(=O)NCC2(N3CCCCC3)CCCCC2)ccc1OC(F)F | inactive: 6.1%
15 | COc1ccc(CN(CCCl)CCCl)cc1Cl | inactive: 1.39%
16 | CN(C)c1cccc(C(=O)NCC2(N3CCCCC3)CCCCC2)c1 | inactive: 5.16%
17 | CC(C)c1ccc(NC2CCN(C(=O)OC(C)(C)C)CC2)cc1 | inactive: 11.2%
18 | CCCCn1nnnc1C(c1ccnc2ccccc12)N1CCC(n2c(=O)[nH]c3ccccc32)CC1 (stereo not drawn) | inactive: 0.42%
19 | COc1cc(OC)c(C(=O)NCC2(N(C)C)CCCCC2)cc1OC | inactive: -2.2%
20 | CCC(c1nnnn1C(C)(C)C)N1CCC(n2c(=O)[nH]c3ccccc32)CC1 (stereo not drawn) | inactive: -3.48%
21 | O=C(NCC1(N2CCOCC2)CCCCC1)c1cc(F)c(F)cc1Cl | inactive: 1.38%
22 | CN1CCC(Nc2cccc(F)c2)CC1 | inactive: 4.3%

Row | SMILES | inhibition
23 | O=C(NCC1(N2CCCCC2)CCCCC1)c1cncc(Br)c1 | inactive: 2.73%
24 | Cc1ccc(C(=O)NCC2(N(C)C)CCCCC2)o1 | inactive: -4.05%
25 | CCCOc1ccc(C(=O)NCC2(N(C)C)CCCCC2)cc1OC | inactive: 4.63%
26 | COc1ccc(C(c2nnnn2C2CCCC2)N2CCC(n3c(=O)[nH]c4ccccc43)CC2)cc1 (stereo not drawn) | inactive: -3.71%
27 | O=C(NCC1(N2CCCCC2)CCCCC1)c1ccc(=O)[nH]c1 | inactive: 1.38%
28 | O=C(NCC1(N2CCCCC2)CCCCC1)c1cccs1 | inactive: -0.97%
29 | CCCCn1nnnc1C(CC)N1CCC(n2c(=O)[nH]c3ccccc32)CC1 (stereo not drawn) | inactive: -5.83%
30 | CCCCn1nnnc1C(c1cccs1)N1CCC(n2c(=O)[nH]c3ccccc32)CC1 (stereo not drawn) | inactive: 4.86%
31 | COc1ccc(C(=O)NCC2(N3CCCCC3)CCCCC2)cc1 | inactive: -1.31%
32 | CC(C)(C)OC(=O)N1CCC(N(C(=O)c2ccccc2)c2ccc(F)cc2)CC1 | inactive: 4.05%
33 | COc1ccc(C(=O)NCC2(N3CCCCC3)CCCCC2)c(OC)c1OC | inactive: -7.12%
34 | CCC(c1nnnn1C1CCCC1)N1CCC(n2c(=O)[nH]c3ccccc32)CC1 (stereo not drawn) | inactive: -8.15%
35 | CSc1ccccc1C(=O)NCC1(N2CCCCC2)CCCCC1 | inactive: 6.73%
36 | Cc1cccc(NC2(C#N)CCN(Cc3ccccc3)CC2)c1 | inactive: -6.86%
37 | O=C(NCC1(N2CCOCC2)CCCCC1)c1cc2ccccc2o1 | inactive: 4.13%
38 | O=C(NCC1(N2CCCCC2)CCCCC1)c1ccc(Cl)nc1 | inactive: -14.7%
39 | O=c1[nH]c2ccccc2n1C1CCN(C(c2ccccc2OC(F)(F)F)c2nnnn2C2CCCCC2)CC1 (stereo not drawn) | inactive: -3.27%
40 | Cc1cc(C)cc(N(C(=O)c2ccccc2)C2CCN(C(=O)OC(C)(C)C)CC2)c1 | inactive: 3.56%
41 | CCOC(=O)N1CCC(Nc2ccc(OC)cc2)CC1 | inactive: 9.08%
42 | CCCCn1nnnc1C(c1ccc(OC)cc1)N1CCC(n2c(=O)[nH]c3ccccc32)CC1 (stereo not drawn) | inactive: 2.18%
43 | O=C(NCC1(N2CCCCC2)CCCCC1)c1ccc(Cl)s1 | inactive: -1.08%
44 | N#CC1(Nc2ccccc2)CCN(Cc2ccccc2)CC1 | inactive: 6.14%

Row | SMILES | inhibition
45 | O=c1[nH]c2ccccc2n1C1CCN(C(c2cc3ccccc3o2)c2nnnn2C2CCCCC2)CC1 (stereo not drawn) | inactive: -3.21%
46 | O=C(OC1CN2CCC1CC2)C1c2ccccc2Oc2ccccc21 (stereo not drawn) | inactive: 5.33%
47 | COc1ccc(Cl)cc1C(=O)NCC1(N2CCOCC2)CCCCC1 | inactive: 3.16%
48 | CCOc1ccc(C)cc1CN(CCCl)CCCl | inactive: -3.79%
49 | CC(C)(C)n1nnnc1C(c1ccccc1)N1CCC(n2c(=O)[nH]c3ccccc32)CC1 (stereo not drawn) | inactive: -2.6%
50 | O=C1CCN(Cc2ccccc2)CC1 | inactive: -0.05%
51 | CCCCOc1ccc(C(=O)NCC2(N3CCOCC3)CCCCC2)cc1 | inactive: -2.72%
52 | CCCCn1nnnc1C(c1cc2ccccc2o1)N1CCC(n2c(=O)[nH]c3ccccc32)CC1 (stereo not drawn) | inactive: -1.34%
53 | O=P1(N(CCCl)CCCl)SCCCS1 | inactive: 1.19%
54 | O=C(NCC1(N2CCCCC2)CCCCC1)c1ccc(F)cc1 | inactive: 8.49%
55 | CCOC(=O)N1CCC(Nc2ccc(F)cc2)CC1 | inactive: -7.32%
56 | COc1ccc(NC2CCN(CCc3ccccc3)CC2)c(OC)c1 | inactive: 0.04%
57 | O=c1[nH]c2ccccc2n1C1CCN(C(c2ccccc2)c2nnnn2C2CCCCC2)CC1 (stereo not drawn) | inactive: -7.78%
58 | O=c1[nH]c2ccccc2n1C1CCN(C(c2cccc3ccccc23)c2nnnn2C2CCCC2)CC1 (stereo not drawn) | inactive: -1.21%
59 | CCOC(=O)N1CCC(Nc2cccc(C)c2)CC1 | inactive: -3.97%
60 | COc1cc(C(=O)NCC2(N(C)C)CCCCC2)ccc1OC(F)F | inactive: 3.07%
61 | COc1cc(OC)cc(C(=O)NCC2(N3CCCCC3)CCCCC2)c1 | inactive: 0.08%
62 | O=c1[nH]c2ccccc2n1C1CCN(C(c2ccnc3ccccc23)c2nnnn2C2CCCCC2)CC1 (stereo not drawn) | inactive: 6.28%
63 | COc1cccc(C(c2nnnn2C2CCCCC2)N2CCC(n3c(=O)[nH]c4ccccc43)CC2)c1OC (stereo not drawn) | inactive: -1.5%
64 | CC(=O)N(c1ccccc1)C1CCNCC1 | inactive: -0.83%
65 | CCC(c1nnnn1C1CCCCC1)N1CCC(n2c(=O)[nH]c3ccccc32)CC1 (stereo not drawn) | inactive: -0.52%
66 | Cc1ccc(NC2(C#N)CCN(Cc3ccccc3)CC2)cc1 | inactive: -7.6%

Row | SMILES | inhibition
67 | Cc1ccc(C(=O)NCC2(N3CCCCC3)CCCCC2)o1 | inactive: -3.55%
68 | Fc1ccccc1NC1CCN(Cc2ccccc2)CC1 | inactive: 6.95%
69 | Cc1ccccc1NC1(C#N)CCN(Cc2ccccc2)CC1 | inactive: 1.67%
70 | CCN1CCC(Nc2cccc(F)c2)CC1 | inactive: 7.43%
71 | COc1ccc(C(c2nnnn2C2CCCCC2)N2CCC(n3c(=O)[nH]c4ccccc43)CC2)cc1 (stereo not drawn) | inactive: 2.09%
72 | CC(C)(C)n1nnnc1C(c1ccnc2ccccc12)N1CCC(n2c(=O)[nH]c3ccccc32)CC1 (stereo not drawn) | inactive: 4.05%
73 | O=C(NCC1(N2CCCCC2)CCCCC1)c1ccco1 | inactive: -5.61%
74 | CN(C)c1ccc(C(=O)NCC2(N3CCCCC3)CCCCC2)cc1 | inactive: 9.98%
75 | Cn1c(=O)[nH]cc(N(CCCl)CCCl)c1=O | inactive: 0.13%
76 | CCOc1ncccc1C(=O)NCC1(N2CCOCC2)CCCCC1 | inactive: -5.44%
77 | CN1CCC(Nc2ccc(F)c(Cl)c2)CC1 | inactive: -4.84%
78 | O=c1[nH]c2ccccc2n1C1CCN(C(c2cc3ccccc3o2)c2nnnn2C2CCCC2)CC1 (stereo not drawn) | inactive: -3.65%
79 | CCCOc1ccc(C(=O)NCC2(N(C)C)CCCCC2)cc1 | inactive: -14.6%
80 | CC(C)(C)OC(=O)N1CCC(Nc2ccccc2)CC1 | inactive: -1.97%
81 | NN(c1ccccc1)C1CCN(CCc2ccccc2)CC1 | inactive: 1.02%
82 | O=C(O)C1(Nc2ccccc2)CCN(Cc2ccccc2)CC1 | inactive: 3.94%
83 | CCC(CO)(C(=O)OC1CN2CCC1CC2)c1ccccc1 (stereo not drawn) | inactive: -0.93%
84 | COc1cccc(C(=O)N(c2cc(C)cc(C)c2)C2CCN(C(=O)OC(C)(C)C)CC2)c1 | inactive: 8.51%
85 | COc1cc(OC)cc(C(=O)NCC2(N3CCOCC3)CCCCC2)c1 | inactive: 6.59%
86 | COc1cccc(C(c2nnnn2C2CCCC2)N2CCC(n3c(=O)[nH]c4ccccc43)CC2)c1OC (stereo not drawn) | inactive: 1.45%
87 | CN1CCC(Nc2ccc(Cl)cc2)CC1 | inactive: -5.17%
88 | O=C(NCC1(N2CCOCC2)CCCCC1)c1cc(Br)ccc1Cl | inactive: -2.29%

Row | SMILES | inhibition
89 | CCCCn1nnnc1C(c1ccccc1)N1CCC(n2c(=O)[nH]c3ccccc32)CC1 (stereo not drawn) | inactive: 2.43%
90 | COc1cc(C(=O)NCC2(N3CCOCC3)CCCCC2)cc(OC)c1C | inactive: -4.47%
91 | COc1ccc(C(=O)NCC2(N3CCOCC3)CCCCC2)cc1OC | inactive: 0.16%
92 | O=c1[nH]c2ccccc2n1C1CCN(C(c2ccnc3ccccc23)c2nnnn2C2CCCC2)CC1 (stereo not drawn) | inactive: -9.24%
93 | O=c1[nH]c2ccccc2n1C1CCN(C(c2cccs2)c2nnnn2C2CCCCC2)CC1 (stereo not drawn) | inactive: -9.89%
94 | N/C(=N\O)c1c(N)no[n+]1[O-] | inactive: 4.72%
95 | CCOC(=O)N1CCC(Nc2ccc(C)cc2)CC1 | inactive: -6.61%
96 | COc1cccc(C(c2nnnn2C(C)(C)C)N2CCC(n3c(=O)[nH]c4ccccc43)CC2)c1OC (stereo not drawn) | inactive: 5.11%
97 | CCCCn1nnnc1C(c1cccc(OC)c1OC)N1CCC(n2c(=O)[nH]c3ccccc32)CC1 (stereo not drawn) | inactive: -5.75%
98 | O=C(OC1CN2CCC1CC2)C1c2ccccc2C=Cc2ccccc21 (stereo not drawn) | inactive: 0.6%
99 | O=c1[nH]c2ccccc2n1C1CCN(C(c2cccs2)c2nnnn2C2CCCC2)CC1 (stereo not drawn) | inactive: -2.63%
100 | CC(C)(C)OC(=O)N1CCC(N(C(=O)c2ccccc2)c2ccc(Cl)cc2)CC1 | inactive: 5.16%
101 | N#Cc1ccc(C(=O)NCC2(N3CCCCC3)CCCCC2)cc1 | inactive: 0.54%
102 | C/C(N)=N\P(=O)(Oc1ccccc1)Oc1ccccc1 | inactive: 9.18%
103 | c1ccc(CN2CCC(Nc3ccccc3)CC2)cc1 | inactive: -7.94%
104 | Cc1cc(N(CCCl)CCCl)ccc1C=O | inactive: 11.2%
105 | O=c1[nH]c2ccccc2n1C1CCN(C(c2ccccc2)c2nnnn2C2CCCC2)CC1 (stereo not drawn) | inactive: 1.4%
106 | CCCN1CCC(Nc2cc(OC)cc(OC)c2)CC1 | inactive: -6.97%
107 | CN(C)C1(CNC(=O)c2cccc(C#N)c2)CCCCC1 | inactive: 3.27%
108 | CC(C)(C)n1nnnc1C(c1cccc2ccccc12)N1CCC(n2c(=O)[nH]c3ccccc32)CC1 (stereo not drawn) | inactive: -3.39%

— PubChem BioAssay AID651800 (The Scripps Research Institute Molecular Screening Center, 2012)
